Molecular target: P-gp (Homo sapiens, UniProt P08183)
Conditions: HeL023 cells; 70 μM

Sequences of proteins named here, by UniProt entry; tags and fusion partners are left off.
UniProt P08183, whole entry: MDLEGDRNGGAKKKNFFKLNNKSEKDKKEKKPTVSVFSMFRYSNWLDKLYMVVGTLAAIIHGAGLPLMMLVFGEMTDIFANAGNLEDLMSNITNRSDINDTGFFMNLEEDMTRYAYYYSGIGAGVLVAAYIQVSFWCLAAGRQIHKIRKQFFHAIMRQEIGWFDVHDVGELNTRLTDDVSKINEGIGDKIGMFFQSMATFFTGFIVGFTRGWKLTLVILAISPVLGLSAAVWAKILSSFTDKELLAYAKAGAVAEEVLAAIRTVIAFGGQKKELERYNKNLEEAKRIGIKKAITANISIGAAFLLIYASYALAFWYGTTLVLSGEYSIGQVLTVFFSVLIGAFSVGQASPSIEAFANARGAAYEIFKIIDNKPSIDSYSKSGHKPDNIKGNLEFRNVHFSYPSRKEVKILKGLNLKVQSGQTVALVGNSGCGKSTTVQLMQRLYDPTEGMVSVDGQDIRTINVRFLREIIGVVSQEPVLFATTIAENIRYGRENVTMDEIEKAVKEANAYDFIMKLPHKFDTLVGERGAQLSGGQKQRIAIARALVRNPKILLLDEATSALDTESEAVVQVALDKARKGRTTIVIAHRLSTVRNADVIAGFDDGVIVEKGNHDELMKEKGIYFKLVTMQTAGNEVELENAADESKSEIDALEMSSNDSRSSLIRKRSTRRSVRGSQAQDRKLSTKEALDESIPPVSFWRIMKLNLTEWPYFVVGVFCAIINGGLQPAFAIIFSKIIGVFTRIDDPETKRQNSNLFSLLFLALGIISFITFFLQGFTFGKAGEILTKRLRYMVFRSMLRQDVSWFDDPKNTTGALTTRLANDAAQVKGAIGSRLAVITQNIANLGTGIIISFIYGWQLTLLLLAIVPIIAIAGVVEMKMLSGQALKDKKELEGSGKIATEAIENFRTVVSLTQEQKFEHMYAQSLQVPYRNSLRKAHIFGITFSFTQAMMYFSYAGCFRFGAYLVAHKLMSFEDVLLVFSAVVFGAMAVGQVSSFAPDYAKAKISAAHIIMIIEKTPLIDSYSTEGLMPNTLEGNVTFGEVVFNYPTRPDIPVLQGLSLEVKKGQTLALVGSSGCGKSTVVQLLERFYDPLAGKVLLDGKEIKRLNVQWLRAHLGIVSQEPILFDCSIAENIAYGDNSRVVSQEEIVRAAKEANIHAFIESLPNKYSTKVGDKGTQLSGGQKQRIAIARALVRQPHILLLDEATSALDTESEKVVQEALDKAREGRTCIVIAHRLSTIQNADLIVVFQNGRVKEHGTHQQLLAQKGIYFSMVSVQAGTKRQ

## Nc1nc(NCCc2ccc(O)cc2)nc2nc(-c3ccco3)nn12
  % of Rh123 Negative Cells (cells expressing P-gp activity): 93.0 ± 1.1%

Source: US20060204502A1 (priority 2004, published 2006)
